Assay outcomes deposited in PubChem by National Center for Advancing Translational Sciences (NCATS).
Nrf2 inh – inhibitors of Nrf2 signaling. AID 504444. hit rate 2.1% among 360,000. A549 ARE-Fluc reporter, luciferase luminescence, 18-24 h. Potency, µM (doses to about 46 µM), without a hit: at the top dose activity change, negative = inhibition, hits mostly inhibitors; further: potency means the concentration at half of the fitted maximal effect; on the % scale 0 is the no-effect control and ±100 the full control effect; nearly all actives have a fitted effect of over 60% in size
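Two sequential reads on A549 ARE_Fluc cells exposed to compound for 18-24 h: a CellTiter-Fluor fluorescence read for viability, then a luciferase luminescence read for Nrf2/ARE activity.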
A549 tox – counter-screen for Nrf2 inhibitors: cytotoxicity in A549 cells. A549 ARE-Fluc cells, CellTiter-Fluor viability, 18-24 h. Potency, µM (doses to about 46 µM), for inactives: at the highest dose activity change, negative = cytotoxicity, actives largely listed as inhibitors. hit rate 0.16% among 390,000. AID 504648; further: potency means the concentration at half of the fitted maximal effect; on the % scale 0 is the no-effect control and ±100 the full control effect
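A549 ARE_Fluc cells in 5% FBS OPTI-MEM were exposed to compounds in concentration-response for 18-24 h at 37 deg C. Viability was read by CellTiter-Fluor fluorescence (Ex 405/Em 525) after 30 min, before the luciferase read.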
TSG101-PTAP inh – blocks PTAP/TSG101 interaction to inhibit HIV-1 budding. Fluorescence polarization, FITC-PTAP peptide / Tsg101 binding. Q99816. Potency, µM (highest dose often 115 µM), for inactives: at the top dose activity change, negative = inhibition, most hits filed as inhibitors. 340,000 tested, under 10 active; active means well fitted inhibition curve with a large enough effect in the main read-out, with a control signal flat, not every such curve was filed as active; inconclusive means small, poorly fitted or top-dose-only effect, or effect the other way, or a change in a side signal; inactive means no such curve, though single readings can be large or run the other way; further: potency means the concentration at half of the fitted maximal effect; % of control where 0% means no effect
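FP read-out: FITC-PTAP peptide, 50 nM final, binding Tsg101 binding domain, 10 uM final; 20 min, r.t.; 10 mM HEPES pH 7.5, 0.15 M NaCl, 0.01% Tween 20, 3 mM EDTA, 0.1 mM TCEP.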
Nrf2 activator – activators of Nrf2 (ARE) signaling; hit rate 0.31% among 410,000; AREc32 ARE-luciferase reporter (MCF7-derived line), luminescence, 24 h; Potency, µM (doses to about 46.1 µM), inactives show top-dose activation, actives largely listed as activators; AID 624171; further: potency means the concentration at half of the fitted maximal effect; % of control where 0% means no effect; nearly all actives have a fitted effect of over 65% in size
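ARE activation measured as luciferase luminescence (Steady-Glo, 30 min RT) in AREc32_Fluc cells after 24 hr compound exposure at 37 deg C, 5% CO2; cells seeded overnight at 1000/well in OPTI-MEM, 5% FBS.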
Glioma ERSR ind – inducers of ER stress response in human glioma cells; hit rate 0.02% among 420,000; U87-MG GRP78 promoter luciferase reporter, 16 h; Potency, µM, inactives show top-dose activation, hits mostly activators; further: potency means the concentration at half of the fitted maximal effect; series mostly up to about 76 µM; % of control where 0% means no effect; nearly all actives have a fitted effect of over 35% in size
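ERSR induction read as luciferase luminescence (Bright-Glo, 10 min at room temperature) in stably transfected human U87-MG glioma cells exposed to compounds for 16 h, using GRP78 as sensor.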
miR-21 FLuc – miR-21 reporter, rising signal | HeLa miR-21 FLuc reporter, luciferase, 48 h | Potency, µM (highest dose often 38.3 µM), for inactives: at the top dose reporter change, positive = more light | 340,000 tested, under 10 active | AID 2288; active = well fitted rising curve with a large enough effect; inconclusive = small, poorly fitted or top-dose-only effect; inactive = no such curve, though single readings can be large or run the other way;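 further: % of control where 0% means no effect; miR-21 action dims this reporter so a rising signal means less miR-21 action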
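Compounds were titrated across several concentrations (up to approximately 40 uM) and incubated 48 hours with HeLa miR-21-FLuc reporter cells (miR-21 target sequence downstream of FLuc, endogenous miR-21). Readout was firefly luciferase luminescence after lytic detection reagent.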
Numbers without * were called inactive; ? = inconclusive; . = not tested or not shown; [ ] = remark or other dose. This is a sample that favours compounds with a hit; in the whole collection about 2.1% have one here. Unless noted, the call rests on the fitted dose curve; in most records, active means well fitted curve in the direction sought with a large enough effect; inconclusive means small, poorly fitted or top-dose-only effect, or another doubt; inactive means no such curve, though single readings can be large; an effect the other way counts as inactive or inconclusive.

canonical_smiles	miR-21 FLuc	Glioma ERSR ind	A549 tox	Nrf2 activator	TSG101-PTAP inh	Nrf2 inh
C=CCN1CC[C@@H](O)C(=C)S1(=O)=O	.	-1.3%	.	.	.	.
Cc1cccc(OCC(=O)NNc2c3ccccc3nc3ccccc23)c1	3.3%	-4.6%	?	2.7%	-4.4%	?
Cc1ccc(OCC(=O)NNc2c3ccccc3nc3ccccc23)cc1	26.6%	-3.3%	?	0.0%[9.22 µM]	-2.2%	18.4µM*
O=C(Nc1ccccc1)c1csc(-c2ccccc2)n1	-46.5%	3.5%	-2.5%	10.0%	-5.7%	?
O=C(Nc1ccc(C(F)(F)F)cc1)c1csc(-c2ccncc2)n1	8.8%	-0.7%	-10.6%	8.1%	-0.8%	18.4µM*
CN=c1nc(-c2ccccc2)n(-c2ccccc2)s1	.	-14.6%	-7.0%	13.8%	0.0%	?
Cc1ccc(-c2nc(=Nc3c(C)cc(C)cc3C)sn2-c2ccccc2)cc1	.	-2.7%	-29.9%	.	.	23.1µM*
O=C(CN1CCOCC1)Nc1nc(-c2ccc3c(c2)CCN3S(=O)(=O)c2ccccc2)cs1	24.7%	-4.4%	-14.2%	4.6%	0.8%	?
Cc1sc(NC(=O)CN2CCOCC2)nc1-c1ccc2c(c1)CCN2S(=O)(=O)c1ccccc1	?	-1.2%	-12.7%	3.5%	-13.8%	2.59µM*
COc1cccc(C2c3c(ncn(-c4ccc(F)cc4)c3=N)Oc3ccc4ccccc4c32)c1 (stereo not given)	.	.	-20.8%	.	.	?
O=C(CCl)N(Cc1cc(=O)[nH]c2ccccc12)c1ccccc1	?	-12.7%	-12.6%	-3.5%	0.7%	23.1µM*
O=C1C(=O)c2ncccc2-c2cccnc21	.	-6.3%	.	.	.	.
O=C1C=C(NCCc2cc(Br)c(O)c(Br)c2)C(=O)c2ncccc21	.	-6.1%	23.1µM*	?	-10.5%	?
COc1cccc(CN2C(=O)NC(C)(C3CCN(Cc4cc(F)cc(F)c4)CC3)C2=O)c1OC (stereo not given)	.	-4.4%	.	.	.	.
c1coc(CNc2nc(-c3cccs3)nc3ccccc23)c1	.	.	1.4%	.	.	?
Cn1c(SCC2CCCO2)nnc1C1CCN(Cc2ccco2)CC1 (stereo not given)	.	-4.5%	.	.	.	.
O=c1oc2ccccc2cc1-c1nc2c(s1)CCc1ccccc1-2	-7.0%	-2.8%	?	3.98µM*	-0.7%	?
COc1cccc2c1C(=O)c1c(O)c3c(c(O)c1C2=O)CC(O)(C(C)=O)CC3OC1CC(O)C(O)C(C)O1 (stereo not given)	.	?	?	2.7%	?	10.3µM*
CCCCC(=O)OCC(=O)C1(O)Cc2c(O)c3c(c(O)c2C(OC2CC(NC(=O)C(F)(F)F)C(O)C(C)O2)C1)C(=O)c1c(OC)cccc1C3=O (stereo not given)	.	6.2%	?	-2.1%	3.0%	9.2µM*
O=C(Nc1ccc(-n2cc(Br)cn2)cc1)c1ccncc1	-4.8%	-1.0%	-10.0%	2.8%	-9.5%	25.9µM*
O=[N+]([O-])c1ccc(N/N=C2\CC3CC=CC23)c([N+](=O)[O-])c1 (stereo not given)	0.5%	-1.9%	?	4.1%	-5.8%	23.1µM*
NC(=O)C1Cc2ccccc2CN1C(=O)c1nn(Cc2ccccc2)c(=O)c2ccccc12 (stereo not given)	.	-2.0%	-7.3%	-0.2%	2.4%	-12.4%
O=C(c1nn(Cc2ccccc2)c(=O)c2ccccc12)N1CCc2ccccc2C1	-2.0%	-4.1%	?	0.3%	-2.9%	23.1µM*
CC(C)(C)n1ncc2c(=O)n(Cc3ccc(SC(=O)O)cc3Cl)cnc21	.	-3.2%	.	.	.	.
Cc1ccc(C(=O)N2c3ccccc3N(Cc3ccccc3)C(=O)C2(C)C)cc1	?	-3.0%	-13.4%	0.6%	-3.8%	11.6µM*
COc1ccc(C2=CC(c3ccc(OC)c(OC)c3)n3nnnc3N2)c(OC)c1 (stereo not given)	-12.0%	-5.0%	?	5.2%	-20.4%	-9.2%
COc1cccc(C2C=C(c3ccc(OC)cc3OC)Nc3nnnn32)c1 (stereo not given)	26.1%	-4.6%	?	3.4%	-7.3%	18.4µM*
COc1ccccc1C(=O)N[C@@H]1c2ccccc2C2(CCN(Cc3c(O)cccc3OC)CC2)[C@H]1O	.	-1.4%	.	.	.	.
CCc1ccc(OCCNC(=O)c2cc(SC)ccc2Cl)cc1	-3.2%	-5.1%	?	0.1%	-2.7%	18.4µM*
CCCCC(F)(F)[C@@]1(O)CC[C@H]2[C@H](CC(=O)[C@@H]2CCCCCCC(=O)O)O1	.	1.8%	.	.	.	.

Part of the list above, with values under each structure:
Values run as follows: miR-21 FLuc, Glioma ERSR ind, A549 tox, Nrf2 activator, TSG101-PTAP inh, Nrf2 inh
O=C(Nc1ccc(C(F)(F)F)cc1)c1csc(-c2ccncc2)n1
→ 8.8%, -0.7%, -10.6%, 8.1%, -0.8%, 18.4µM*
CN=c1nc(-c2ccccc2)n(-c2ccccc2)s1
→ ., -14.6%, -7.0%, 13.8%, 0.0%, ?
Cc1ccc(-c2nc(=Nc3c(C)cc(C)cc3C)sn2-c2ccccc2)cc1
→ ., -2.7%, -29.9%, ., ., 23.1µM*
O=C(CN1CCOCC1)Nc1nc(-c2ccc3c(c2)CCN3S(=O)(=O)c2ccccc2)cs1
→ 24.7%, -4.4%, -14.2%, 4.6%, 0.8%, ?

The list continues.
canonical_smiles	miR-21 FLuc	Glioma ERSR ind	A549 tox	Nrf2 activator	TSG101-PTAP inh	Nrf2 inh
CO[C@]1(NC(=O)Cc2cccs2)C(=O)N2C(C(=O)O)=CC(COC(N)=O)S[C@H]21 (stereo not given in full)	.	-3.4%	.	.	.	.
O=S(=O)(c1cc(C(F)(F)F)ccc1Cl)N1CCN(c2ncnc3ccccc23)CC1	.	-3.1%	-12.7%	-0.4%	2.0%	18.4µM*
CCN(CC)S(=O)(=O)c1cccc(-c2nnc(SCCCC(=O)c3ccc(F)cc3)o2)c1	3.8%	-2.1%	-16.5%	0.6%	-7.1%	23.1µM*
CCN(CC)S(=O)(=O)c1cccc(-c2nnc(SCCCC(=O)c3ccccc3)o2)c1	16.5%	7.5%	-14.2%	2.7%	2.1%	?
O.O.[Mn].[Mn].[Mn].[OH-].[OH-]	.	-7.2%	.	.	.	.
COc1cc(C2C(C#N)=C(N)N(Nc3ccccc3)C3=C2C(=O)CC(C)(C)C3)ccc1OCc1ccccc1 (stereo not given)	22.2%	-3.3%	?	3.0%	-5.6%	23.1µM*
COc1ccc(-n2c(=S)[nH]c3cc(C(=O)Nc4ccc(F)cc4)ccc3c2=O)c(OC)c1	22.7%	-5.5%	1.4%	4.0%	-3.0%	20.6µM*
COc1ccc(-n2c(=S)[nH]c3cc(C(=O)NCc4ccccc4OC)ccc3c2=O)c(OC)c1	9.5%	-4.6%	-3.5%	-0.4%	-1.3%	?
COc1ccc(-n2c(=S)[nH]c3cc(C(=O)NCc4ccc(F)cc4)ccc3c2=O)c(OC)c1	12.6%	-5.1%	0.6%	0.1%	-0.8%	16.4µM*
CC/C(=C\c1ccc(C(=O)OC)cc1)c1cc(OC)cc2oc3ccccc3c12	.	-1.0%	.	.	.	.
COc1cccc(C(=O)N(Cc2cc3ccc(C)cc3nc2N(C)C)C2CC2)c1OC	.	-3.7%	.	.	.	.
CC(/C=C/c1ccco1)=N\NC(=O)CNc1ccc2ccccc2c1	-7.0%	1.9%	0.0%	10µM*	0.1%	0.0%
COc1ccc(OC)c(N(CCN2C(=O)c3ccccc3C2=O)C(=O)CCl)c1	.	-14.2%	.	12.6µM*	.	.
COc1ccc(NC(=O)CCN2C(=O)c3ccccc3C2=O)c(OC)c1	-0.1%	-3.1%	4.9%	0.0%	1.4%	5.0%
